Data taken from article PMC6599006, “Rational design using sequence information only produces a peptide that binds to the intrinsically disordered region of p53” (Scientific Reports, 2019).

Target: CT peptide (residues 367–393 of human p53) labeled with FAM at the N-terminus (human) (UniProt P04637)
Experiment: fluorescence polarisation; fluorescence anisotropy; nonlabeled peptide titrated into 5 nM FAM-labeled CT peptide; 25 °C; 20 mM HEPES, 0.5 mM EDTA, 1 mM DTT, 0.2 mg/mL BSA, pH 7.9; in the absence of salt; apparent dissociation constant, one by one binding fit

Wmot2 (266–280) (peptide) showed a pKd of 3.57.

pKd: −log10 of the molar value.
